Measured values from patent publication US20240279321A1 (THERINI BIO, published 2024).

Target: T1, Human fibrin γ377-395 (Human P2 peptide) (human)
T1 construct: In the crystal models, residues 410-421 of chain A are ordered; also called fibrin P2 peptide; fibrin P2 gamma peptide
T1 peptide: YSMKKTTMKIIPFNRLTIG
Experiment: BLI (ForteBio Octet): N-term biotinylated fibrin P2G peptide on SA tip, IgG in solution 100 nM (avid) [Cont.]

binding result: binds
B1: ADI-THN227 (IgG) (antibody, V domains shown)
VH: QVQLVQSGAEVKKPGSSVKVSCKASGYTFTSYWIHWVRQAPGQGLEWIGLIDPSDSYTNYNQKFRGRVTITRDTSTSTAYMELSSLRSEDTAVYYCASSDPTGGWGQGTTVTVSS
VL: DIVMTQAAFSNPVTPGTPASISCRSSKSLLHSSGITYLSWYLQKPGQSPQLLIYQMSNLASGVPDRFSSSGSGTDFTLKISRVEAEDVGVYYCAQNLELPLTFGQGTKLEIKR
